Here are results for one compound from patent US7671165B2, “Method of forming polycarbonate” (Sabic Innovative Plastics IP B.V., priority 2008, dated 2010).

SMILES strings stand for the structures.

This data set is described as follows: Solubility of catalysts in MS and co-solvents. Particulars: 2.47 wt %; 0.3 g; 10.0 ml MS, no co-solvent.

Consider `CC(=O)[O-].CCCC[N+](CCCC)(CCCC)CCCC` [Tetra Butyl Ammonium Acetate], for which the “Solubility of catalyst, T (room)” value is given as “Dissolved”.
